Reference: paper PMC8315922, “In Vitro Identification and In Vivo Confirmation of Inhibitors for Sweet Potato Chlorotic Stunt Virus RNA Silencing Suppressor, a Viral RNase III” (Journal of Virology, 2021)

Tests used:
SPFMV [1] = assay: Virus accumulation (RT-qPCR of coat protein RNA) in coinfected sweetpotato plants grown in culture medium: SPFMV; format: in vivo, Sweet potato feathery mottle virus
Procedure: (§1) Since tests in culture medium consume smaller amounts of compounds and can be carried out under relatively controlled conditions, sweetpotato plants coinfected with SPCSV and SPFMV were grown in medium supplemented with one of the 30 inhibitor candidates at a concentration of 50 μM. Their effects on plant growth were monitored by imaging the plants once a week. […] In addition, virus accumulation was quantified by measuring the relative abundance of the transcripts encoding viral coat proteins using RT-qPCR ([32]). The effect of individual compounds on virus accumulation was estimated by comparing treated and control plants. […]
(§2) For HTS, the activity of CSR3 was calculated by measuring the change in fluorescence as a function of the reaction time using MARS Data Analysis software (BMG Labtech). To evaluate the CSR3 inhibition efficiency of individual compounds, the PI of each compound was calculated using the slope values for the sample, positive control, and negative control according to the following equation: PI = 100 × [1 − (sample − positive)/(negative − positive)]%. IC50 and DSS values were calculated using concentration-specific PI values according to a previous study ([31]). Relative gene expression was calculated using the classical 2^−ΔΔ^CT method ([63]).

SPCSV [2] = assay: Virus accumulation (RT-qPCR of coat protein RNA) in coinfected sweetpotato plants grown in culture medium: SPCSV; format: in vivo, Sweet potato chlorotic stunt virus
Procedure: as §1, §2

SPFMV [3] = conditions: plants in soil, 10 μM foliar spray twice a week for 1 month, vs water-treated
SPCSV [4] = conditions: plants in soil, 10 μM foliar spray twice a week for 1 month, vs water-treated
[5] = 50 μM in culture medium, 28 days, relative to DMSO control
[6] = plants in culture medium, 50 μM

CN1CCc2cccc3c2[C@H]1Cc1ccc(O)c(O)c1-3 [FIMM000096, reference compound]
SPFMV_FC (fold change of viral accumulation) (SPFMV [1]; [5]): 0.5855
viral titer SPFMV (log2 fold change relative to controls) (SPFMV [1]; [6]): −0.77
SPCSV_FC (fold change of viral accumulation) (SPCSV [2]; [5]): 0.188
viral titer SPCSV (log2 fold change relative to controls) (SPCSV [2]; [6]): −2.41
log2 fold change in coat protein expression of SPFMV (SPFMV [3]): −1.06
log2 fold change in coat protein expression of SPCSV (SPCSV [4]): −1.41
